{"sequences": {"note": "Protein sequences, listed by entry. Tags and fused reporters are not part of them. Lines headed by an entry give the natural chain unless they say otherwise; changes in a name come on top. Residues count along the entry.", "UniProt P50750, whole entry": "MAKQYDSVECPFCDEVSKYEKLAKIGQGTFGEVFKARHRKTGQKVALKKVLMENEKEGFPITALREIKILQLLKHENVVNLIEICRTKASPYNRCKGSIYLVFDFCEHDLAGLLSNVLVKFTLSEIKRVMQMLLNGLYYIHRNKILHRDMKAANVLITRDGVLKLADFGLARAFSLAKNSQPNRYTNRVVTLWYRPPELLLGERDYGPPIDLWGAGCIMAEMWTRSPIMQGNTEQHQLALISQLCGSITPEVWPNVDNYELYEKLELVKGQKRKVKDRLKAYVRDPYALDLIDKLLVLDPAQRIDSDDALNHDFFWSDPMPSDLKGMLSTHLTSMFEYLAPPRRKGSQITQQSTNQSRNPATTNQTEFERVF", "UniProt Q16531, whole entry": "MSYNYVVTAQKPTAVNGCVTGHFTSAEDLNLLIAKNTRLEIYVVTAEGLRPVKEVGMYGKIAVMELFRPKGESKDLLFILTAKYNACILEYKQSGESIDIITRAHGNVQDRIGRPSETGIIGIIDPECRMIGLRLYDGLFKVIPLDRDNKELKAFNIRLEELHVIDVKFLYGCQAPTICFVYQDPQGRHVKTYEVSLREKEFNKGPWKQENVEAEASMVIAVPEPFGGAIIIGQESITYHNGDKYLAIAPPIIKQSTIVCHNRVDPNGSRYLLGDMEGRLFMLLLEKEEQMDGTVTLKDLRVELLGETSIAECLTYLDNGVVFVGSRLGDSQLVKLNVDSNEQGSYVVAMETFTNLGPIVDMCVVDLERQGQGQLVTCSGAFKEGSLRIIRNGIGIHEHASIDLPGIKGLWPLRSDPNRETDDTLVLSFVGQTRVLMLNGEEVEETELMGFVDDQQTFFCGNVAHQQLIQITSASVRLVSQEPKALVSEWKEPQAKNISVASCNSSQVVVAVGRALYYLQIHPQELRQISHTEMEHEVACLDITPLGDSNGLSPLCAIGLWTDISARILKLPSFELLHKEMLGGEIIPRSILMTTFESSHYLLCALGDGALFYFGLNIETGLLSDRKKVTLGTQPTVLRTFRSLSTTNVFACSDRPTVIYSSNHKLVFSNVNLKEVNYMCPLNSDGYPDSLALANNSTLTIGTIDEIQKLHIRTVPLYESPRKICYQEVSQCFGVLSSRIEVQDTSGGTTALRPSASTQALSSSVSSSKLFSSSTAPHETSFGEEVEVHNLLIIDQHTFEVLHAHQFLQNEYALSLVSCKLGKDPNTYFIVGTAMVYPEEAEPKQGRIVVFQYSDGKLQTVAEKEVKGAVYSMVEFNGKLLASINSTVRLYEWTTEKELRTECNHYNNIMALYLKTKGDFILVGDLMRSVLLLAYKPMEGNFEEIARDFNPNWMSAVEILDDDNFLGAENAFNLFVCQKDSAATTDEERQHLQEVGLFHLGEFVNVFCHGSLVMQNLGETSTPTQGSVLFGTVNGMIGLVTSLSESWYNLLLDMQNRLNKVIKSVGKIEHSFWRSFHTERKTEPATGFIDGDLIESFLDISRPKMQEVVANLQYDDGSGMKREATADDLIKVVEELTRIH", "UniProt Q9NYV4, 713-1052 K965R": "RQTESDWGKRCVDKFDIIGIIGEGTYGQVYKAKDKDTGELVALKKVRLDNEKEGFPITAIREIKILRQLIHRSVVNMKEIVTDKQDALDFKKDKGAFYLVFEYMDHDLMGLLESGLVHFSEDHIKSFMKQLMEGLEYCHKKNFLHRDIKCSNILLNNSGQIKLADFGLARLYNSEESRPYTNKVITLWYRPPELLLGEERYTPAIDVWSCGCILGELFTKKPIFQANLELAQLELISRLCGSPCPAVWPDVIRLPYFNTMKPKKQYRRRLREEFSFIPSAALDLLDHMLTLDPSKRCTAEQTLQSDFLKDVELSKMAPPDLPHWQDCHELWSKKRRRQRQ"}, "source": "paper PMC10746543", "about": "“Design principles for cyclin K molecular glue degraders” (Nature Chemical Biology, 2023)", "key": {"CDK9–cyclin T": {"molecular_target": "T1, CDK9–cyclin T (Homo sapiens, UniProt P50750)", "T1 construct": "purchased Thermo Fisher", "test": "Lanthascreen kinase binding assay, CDK9", "conditions": "Supplementary Table 2"}, "CDK12–cyclin K and DDB1 [1]": {"molecular_target": "T2, CDK12–cyclin K and DDB1 (Homo sapiens, UniProt Q16531+Q9NYV4, K965R)", "test": "TR-FRET ternary complex formation assay (compound titration)", "conditions": "for TR-FRET signal at compound concentration: replicate titrations"}, "CDK12–cyclin K and DDB1 [2]": {"molecular_target": "T2, CDK12–cyclin K and DDB1", "test": "TR-FRET Kd determination, quadratic fit, 50 nM or 10 nM CDK12–cyclin K", "format": "binding", "set-up": "His6–CDK12 (a.a. 713–1,052); full-length or beta-propeller B domain deletion (ΔBPB: a.a. 396–705 deleted) constructs of His6–DDB1ΔBPB, StrepII–Avi–DDB1, or His6–Spy–DDB1; made in house; host or cells: Trichoplusia ni High Five insect cells (baculovirus)"}, "[3]": {"conditions": "compound concentration 79.2001 nM"}, "[4]": {"conditions": "compound concentration 158.4 nM"}, "[5]": {"conditions": "compound concentration 309.6 nM"}, "[6]": {"conditions": "compound concentration 626.401 nM"}, "[7]": {"conditions": "compound concentration 1252.8 nM"}, "[8]": {"conditions": "compound concentration 9936.01 nM"}, "[9]": {"conditions": "compound concentration 20016 nM"}}, "note": "Values joined by “and” are separate entries in the source; they are usually repeats but may differ in a detail not shown here. Identical values can stand only once.", "data": [{"smiles": "CC(C)c1nn(-c2c(Cl)cccc2Cl)c2nc(Cc3ccc(OCCO)cc3)[nH]c(=O)c12", "note": "[compound 21195]", "values": [{"measurement": "IC50", "setting": "CDK9–cyclin T", "value": 1, "unit": "nM"}]}, {"smiles": "CC[C@H](CO)Nc1nc(NCc2ccccc2)c2ncn(C(C)C)c2n1", "note": "[Roscovitine, reference compound]", "values": [{"measurement": "TR-FRET signal, individual replicate", "setting": "CDK12–cyclin K and DDB1 [1]; compound concentration 4.68 nM", "value": "0.2126 and 0.2299 and 0.1257 and 0.1312"}, {"measurement": "TR-FRET signal at compound concentration 4.68 nM", "setting": "CDK12–cyclin K and DDB1 [1]; compound concentration 4.68 nM, raw replicate titration data", "value": "0.2126 and 0.2299 and 0.1257 and 0.1312"}, {"measurement": "TR-FRET signal at compound concentration", "setting": "CDK12–cyclin K and DDB1 [1]; compound concentration 4.68 nM", "value": "0.2126 and 0.2299 and 0.1257 and 0.1312"}, {"measurement": "TR-FRET signal, individual replicate", "setting": "CDK12–cyclin K and DDB1 [1]; compound concentration 21.6 nM", "value": "0.2257 and 0.2471 and 0.1393 and 0.1531"}, {"measurement": "TR-FRET signal at compound concentration 21.6 nM", "setting": "CDK12–cyclin K and DDB1 [1]; compound concentration 21.6 nM, raw replicate titration data", "value": "0.2257 and 0.2471 and 0.1393 and 0.1531"}, {"measurement": "TR-FRET signal at compound concentration", "setting": "CDK12–cyclin K and DDB1 [1]; compound concentration 21.6 nM", "value": "0.2257 and 0.2471 and 0.1393 and 0.1531"}, {"measurement": "TR-FRET signal, individual replicate", "setting": "CDK12–cyclin K and DDB1 [1]; compound concentration 36 nM", "value": "0.262 and 0.2844 and 0.1642 and 0.1813"}, {"measurement": "TR-FRET signal at compound concentration 36 nM", "setting": "CDK12–cyclin K and DDB1 [1]; compound concentration 36 nM, raw replicate titration data", "value": "0.262 and 0.2844 and 0.1642 and 0.1813"}, {"measurement": "TR-FRET signal at compound concentration", "setting": "CDK12–cyclin K and DDB1 [1]; compound concentration 36 nM", "value": "0.262 and 0.2844 and 0.1642 and 0.1813"}, {"measurement": "TR-FRET signal, individual replicate", "setting": "CDK12–cyclin K and DDB1 [1]; [3]", "value": "0.3118 and 0.3459 and 0.2061 and 0.2249"}, {"measurement": "TR-FRET signal at compound concentration 79.2001 nM", "setting": "CDK12–cyclin K and DDB1 [1]; compound concentration 79.2001 nM, raw replicate titration data", "value": "0.3118 and 0.3459 and 0.2061 and 0.2249"}, {"measurement": "TR-FRET signal at compound concentration", "setting": "CDK12–cyclin K and DDB1 [1]; [3]", "value": "0.3118 and 0.3459 and 0.2061 and 0.2249"}, {"measurement": "TR-FRET signal, individual replicate", "setting": "CDK12–cyclin K and DDB1 [1]; [4]", "value": "0.3813 and 0.4341 and 0.2653 and 0.3104"}, {"measurement": "TR-FRET signal at compound concentration 158.4 nM", "setting": "CDK12–cyclin K and DDB1 [1]; compound concentration 158.4 nM, raw replicate titration data", "value": "0.3813 and 0.4341 and 0.2653 and 0.3104"}, {"measurement": "TR-FRET signal at compound concentration", "setting": "CDK12–cyclin K and DDB1 [1]; [4]", "value": "0.3813 and 0.4341 and 0.2653 and 0.3104"}, {"measurement": "TR-FRET signal, individual replicate", "setting": "CDK12–cyclin K and DDB1 [1]; [5]", "value": "0.4744 and 0.5369 and 0.3534 and 0.4162"}, {"measurement": "TR-FRET signal at compound concentration 309.6 nM", "setting": "CDK12–cyclin K and DDB1 [1]; compound concentration 309.6 nM, raw replicate titration data", "value": "0.4744 and 0.5369 and 0.3534 and 0.4162"}, {"measurement": "TR-FRET signal at compound concentration", "setting": "CDK12–cyclin K and DDB1 [1]; [5]", "value": "0.4744 and 0.5369 and 0.3534 and 0.4162"}, {"measurement": "TR-FRET signal, individual replicate", "setting": "CDK12–cyclin K and DDB1 [1]; [6]", "value": "0.6027 and 0.6864 and 0.4712 and 0.5089"}, {"measurement": "TR-FRET signal at compound concentration 626.401 nM", "setting": "CDK12–cyclin K and DDB1 [1]; compound concentration 626.401 nM, raw replicate titration data", "value": "0.6027 and 0.6864 and 0.4712 and 0.5089"}, {"measurement": "TR-FRET signal at compound concentration", "setting": "CDK12–cyclin K and DDB1 [1]; [6]", "value": "0.6027 and 0.6864 and 0.4712 and 0.5089"}, {"measurement": "TR-FRET signal, individual replicate", "setting": "CDK12–cyclin K and DDB1 [1]; [7]", "value": "0.7525 and 0.8428 and 0.5942 and 0.637"}, {"measurement": "TR-FRET signal at compound concentration 1252.8 nM", "setting": "CDK12–cyclin K and DDB1 [1]; compound concentration 1252.8 nM, raw replicate titration data", "value": "0.7525 and 0.8428 and 0.5942 and 0.637"}, {"measurement": "TR-FRET signal at compound concentration", "setting": "CDK12–cyclin K and DDB1 [1]; [7]", "value": "0.7525 and 0.8428 and 0.5942 and 0.637"}, {"measurement": "TR-FRET signal, individual replicate", "setting": "CDK12–cyclin K and DDB1 [1]; compound concentration 2448 nM", "value": "0.8856 and 0.9877 and 0.7182 and 0.7806"}, {"measurement": "TR-FRET signal at compound concentration 2448 nM", "setting": "CDK12–cyclin K and DDB1 [1]; compound concentration 2448 nM, raw replicate titration data", "value": "0.8856 and 0.9877 and 0.7182 and 0.7806"}, {"measurement": "TR-FRET signal at compound concentration", "setting": "CDK12–cyclin K and DDB1 [1]; compound concentration 2448 nM", "value": "0.8856 and 0.9877 and 0.7182 and 0.7806"}, {"measurement": "TR-FRET signal, individual replicate", "setting": "CDK12–cyclin K and DDB1 [1]; [8]", "value": "1.014 and 1.149 and 0.8185 and 0.8884"}, {"measurement": "TR-FRET signal at compound concentration 9936.01 nM", "setting": "CDK12–cyclin K and DDB1 [1]; compound concentration 9936.01 nM, raw replicate titration data", "value": "1.014 and 1.149 and 0.8185 and 0.8884"}, {"measurement": "TR-FRET signal at compound concentration", "setting": "CDK12–cyclin K and DDB1 [1]; [8]", "value": "1.014 and 1.149 and 0.8185 and 0.8884"}, {"measurement": "TR-FRET signal, individual replicate", "setting": "CDK12–cyclin K and DDB1 [1]; [9]", "value": "1.042 and 1.162 and 0.8706 and 0.8937"}, {"measurement": "TR-FRET signal at compound concentration 20016 nM", "setting": "CDK12–cyclin K and DDB1 [1]; compound concentration 20016 nM, raw replicate titration data", "value": "1.042 and 1.162 and 0.8706 and 0.8937"}, {"measurement": "TR-FRET signal at compound concentration", "setting": "CDK12–cyclin K and DDB1 [1]; [9]", "value": "1.042 and 1.162 and 0.8706 and 0.8937"}, {"measurement": "TR-FRET signal", "setting": "CDK12–cyclin K and DDB1 [2]; 10 nM CDK12-cyclin K, compound 4.68001 nM", "value": 0.09223}, {"measurement": "TR-FRET signal", "setting": "CDK12–cyclin K and DDB1 [2]; 10 nM CDK12-cyclin K, compound 21.6 nM", "value": 0.09342}, {"measurement": "TR-FRET signal", "setting": "CDK12–cyclin K and DDB1 [2]; 10 nM CDK12-cyclin K, compound 36 nM", "value": 0.09758}, {"measurement": "TR-FRET signal", "setting": "CDK12–cyclin K and DDB1 [2]; 10 nM CDK12-cyclin K, compound 79.2001 nM", "value": 0.1019}, {"measurement": "TR-FRET signal", "setting": "CDK12–cyclin K and DDB1 [2]; 10 nM CDK12-cyclin K, compound 158.4 nM", "value": 0.1122}, {"measurement": "TR-FRET signal", "setting": "CDK12–cyclin K and DDB1 [2]; 10 nM CDK12-cyclin K, compound 309.6 nM", "value": 0.1249}, {"measurement": "TR-FRET signal", "setting": "CDK12–cyclin K and DDB1 [2]; 10 nM CDK12-cyclin K, compound 626.399 nM", "value": 0.1365}, {"measurement": "TR-FRET signal", "setting": "CDK12–cyclin K and DDB1 [2]; 10 nM CDK12-cyclin K, compound 1252.79 nM", "value": 0.1538}, {"measurement": "TR-FRET signal", "setting": "CDK12–cyclin K and DDB1 [2]; 10 nM CDK12-cyclin K, compound 2448 nM", "value": 0.1657}, {"measurement": "TR-FRET signal", "setting": "CDK12–cyclin K and DDB1 [2]; 10 nM CDK12-cyclin K, compound 9936 nM", "value": 0.1818}, {"measurement": "TR-FRET signal", "setting": "CDK12–cyclin K and DDB1 [2]; 10 nM CDK12-cyclin K, compound 20016 nM", "value": 0.1827}, {"measurement": "TR-FRET signal", "setting": "CDK12–cyclin K and DDB1 [2]; 50 nM CDK12-cyclin K, compound 4.68001 nM", "value": 0.2099}, {"measurement": "TR-FRET signal", "setting": "CDK12–cyclin K and DDB1 [2]; 50 nM CDK12-cyclin K, compound 21.6 nM", "value": 0.215}, {"measurement": "TR-FRET signal", "setting": "CDK12–cyclin K and DDB1 [2]; 50 nM CDK12-cyclin K, compound 36 nM", "value": 0.2441}, {"measurement": "TR-FRET signal", "setting": "CDK12–cyclin K and DDB1 [2]; 50 nM CDK12-cyclin K, compound 79.2001 nM", "value": 0.2709}, {"measurement": "TR-FRET signal", "setting": "CDK12–cyclin K and DDB1 [2]; 50 nM CDK12-cyclin K, compound 158.4 nM", "value": 0.3191}, {"measurement": "TR-FRET signal", "setting": "CDK12–cyclin K and DDB1 [2]; 50 nM CDK12-cyclin K, compound 309.6 nM", "value": 0.3772}, {"measurement": "TR-FRET signal", "setting": "CDK12–cyclin K and DDB1 [2]; 50 nM CDK12-cyclin K, compound 626.399 nM", "value": 0.4718}, {"measurement": "TR-FRET signal", "setting": "CDK12–cyclin K and DDB1 [2]; 50 nM CDK12-cyclin K, compound 1252.79 nM", "value": 0.5706}, {"measurement": "TR-FRET signal", "setting": "CDK12–cyclin K and DDB1 [2]; 50 nM CDK12-cyclin K, compound 2448 nM", "value": 0.6386}, {"measurement": "TR-FRET signal", "setting": "CDK12–cyclin K and DDB1 [2]; 50 nM CDK12-cyclin K, compound 9936 nM", "value": 0.7225}, {"measurement": "TR-FRET signal", "setting": "CDK12–cyclin K and DDB1 [2]; 50 nM CDK12-cyclin K, compound 20016 nM", "value": 0.7219}]}]}
